Measurements reported in paper PMC8324038 (ACS infectious diseases, 2021).

Legend:
[1] = target: T1, PenA1 β-lactamase (wild-type) (Burkholderia multivorans, UniProt A0A0H3KN52); assay: IC50 with crude protein extracts, nitrocefin reporter; type: biochemical
T1 sequence (A0A0H3KN52 28-302): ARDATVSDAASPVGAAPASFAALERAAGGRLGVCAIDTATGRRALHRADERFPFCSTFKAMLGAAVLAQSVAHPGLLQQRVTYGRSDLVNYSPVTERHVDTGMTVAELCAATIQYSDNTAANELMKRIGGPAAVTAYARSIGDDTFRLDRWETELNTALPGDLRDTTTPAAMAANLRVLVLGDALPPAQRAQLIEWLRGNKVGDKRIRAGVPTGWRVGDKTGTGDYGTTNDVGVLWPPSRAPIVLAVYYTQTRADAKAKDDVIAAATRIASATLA

[2] = target: T2, purified PenA1 β-lactamase (Burkholderia multivorans, UniProt A0A0H3KN52); assay: Acylation rate k2/K; type: biochemical; conditions: acylation rate (kinact/KI or k2/K), nitrocefin 100 μM reporter
T2 sequence (A0A0H3KN52 28-302): T1 sequence (A0A0H3KN52 28-302)

NC(=O)[C@@H]1CC[C@@H]2CN1C(=O)N2OS(=O)(=O)O [avibactam]
IC50 [1]: 1000 nM | k2/K [2]: 340 to 2e+06 M⁻¹ s⁻¹
